By UniProt entry, the sequences of proteins in these tests, tags left out.
UniProt P35222, whole entry: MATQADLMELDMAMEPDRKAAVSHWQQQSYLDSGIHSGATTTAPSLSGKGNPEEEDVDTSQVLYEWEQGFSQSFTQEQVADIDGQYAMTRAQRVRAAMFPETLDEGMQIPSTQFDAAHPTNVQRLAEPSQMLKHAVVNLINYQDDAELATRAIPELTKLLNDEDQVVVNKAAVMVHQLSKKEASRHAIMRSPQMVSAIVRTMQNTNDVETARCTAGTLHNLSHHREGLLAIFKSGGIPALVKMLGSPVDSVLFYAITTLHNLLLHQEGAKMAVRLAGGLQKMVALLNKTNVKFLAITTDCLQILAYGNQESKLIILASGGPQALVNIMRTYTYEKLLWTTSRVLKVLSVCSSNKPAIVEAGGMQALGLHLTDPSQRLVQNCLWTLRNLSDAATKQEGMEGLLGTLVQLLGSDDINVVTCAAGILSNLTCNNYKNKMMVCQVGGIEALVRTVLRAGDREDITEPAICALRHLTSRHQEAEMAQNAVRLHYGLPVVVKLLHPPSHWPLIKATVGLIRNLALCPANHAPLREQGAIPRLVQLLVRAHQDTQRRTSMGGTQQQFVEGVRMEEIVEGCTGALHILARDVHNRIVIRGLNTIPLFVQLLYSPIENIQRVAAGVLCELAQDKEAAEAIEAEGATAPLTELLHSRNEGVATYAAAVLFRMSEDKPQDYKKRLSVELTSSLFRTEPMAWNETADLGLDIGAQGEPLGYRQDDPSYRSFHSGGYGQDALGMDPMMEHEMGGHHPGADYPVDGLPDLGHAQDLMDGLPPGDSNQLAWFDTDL

In ChEMBL document CHEMBL5104113, “Biophysical Survey of Small-Molecule β-Catenin Inhibitors: A Cautionary Tale” (J Med Chem, 2022):

Biological target: Catenin beta-1 (Homo sapiens, UniProt P35222)
Assay: Binding affinity to beta catenin (unknown origin) assessed as dissociation constant by VP-ITC method

Compound: O=C(O)CC[C@H](NC(=O)[C@H](CC(=O)O)NC(=O)[C@H](Cc1ccc2ccccc2c1)NC(=O)c1cc2cc(Cl)ccc2[nH]1)C(=O)Nc1ccc(OC(F)(F)F)cc1
- Kd: 420 nM
